Laboratory results: BindingDB's records for 1656044 (National Institute of Diabetes and Digestive and Kidney …, 1991)

Protein sequences, listed by entry. Tags and fused reporters are not part of them.
UniProt Q99720, whole entry, looked up: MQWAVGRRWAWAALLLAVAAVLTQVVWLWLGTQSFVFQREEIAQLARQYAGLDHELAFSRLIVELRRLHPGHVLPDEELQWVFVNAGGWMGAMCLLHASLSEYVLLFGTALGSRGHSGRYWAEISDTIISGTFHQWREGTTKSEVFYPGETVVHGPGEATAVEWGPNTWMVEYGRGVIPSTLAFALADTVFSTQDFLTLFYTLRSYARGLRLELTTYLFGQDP

What was measured:
[1] = target: T1, Sigma non-opioid intracellular receptor 1 (Homo sapiens, UniProt Q99720); test: ChEBML_201279
[2] = target: T1, Sigma non-opioid intracellular receptor 1; test: Compound was tested for the inhibitory activity against Sigma opioid receptor by using [3H](+)-3-PPP as radioligand in guinea pig brain

Row | Structure (SMILES) | Ki [1] [nM] | Ki [2] [nM]
1 | O=C(Cc1ccc(Cl)c(Cl)c1)N[C@H]1CCCC[C@H]1N1CCCC1 | 146 | 
2 | O=C(Cc1ccc(Cl)c(Cl)c1)N[C@@H]1CCCC[C@@H]1N1CCCC1 |  | 11
